{
  "source": "patent US20160158307A1",
  "about": "“Potent and Efficient Cytotoxic Peptides and Antibody-Drug Conjugates thereof and Their Synthesis” (priority 2014, published 2016)",
  "type_in_all_cases": "cell-based, Human",
  "key": {"SK-BR-3": {"system": "SK-BR-3", "test": "In vitro cell assay (Cell Titer Glo), SK-BR-3", "conditions": "Table 3; payloads and related ADCs; 6 days exposure; Her2 positive", "procedure": "(§1) In vitro cell assay is performed in a 96 well micro titer plate. Human tumor cell lines Hela, A549, MCF-7, HCC-1954 and SK-BR-3 are obtained from ATCC (American Type Culture Collection).\n(§2) The cells were harvested respectively during the logarithmic growth period and counted with hemocytometer. The cell viability was over 98% by trypan blue exclusion. 90 μl of cell suspensions were added in to 96-well plates, the final cell density was reached to 3000 cells/well. Plates were incubated for 96 hours at 37° C., and 5% CO2.\n(§3) To each well was added 10 μL, of DMSO diluted compound (10×). For the sentinel base T0 plate, to each well was added 100 μL Cell Titer Gloand the luminescence signals with Envision reading were recorded.\n(§4) […] Plates are read with Envision after adding Cell Titer Glo to each well. IC50 values were calculated using GraphPad Prism 5."}, "MCF-7": {"system": "MCF-7", "test": "In vitro cell assay (Cell Titer Glo), MCF-7", "conditions": "Table 3; payloads and related ADCs; 6 days exposure; does not over-express Her2", "procedure": "as §1, §2, §3, §4"}, "HCC1954": {"system": "HCC1954", "test": "In vitro cell assay (Cell Titer Glo), HCC1954", "conditions": "Table 3; payloads and related ADCs; 6 days exposure; Her2 positive", "procedure": "as §1\nThe cells were harvested respectively during the logarithmic growth period and counted with hemocytometer. The cell viability was over 98% by trypan blue exclusion. 90 μl of cell suspensions were added in to 96-well plates, the final cell density was reached to 3000 cells/well. […]\nas §3, §4"}},
  "data": [
    {"substance": "H-vcMMAE: ADC of Herceptin (Trastuzumab) with vc linker and MMAE [reference compound]", "values": [
      {"measurement": "IC50", "setting": "SK-BR-3", "result": 0.017, "unit": "nM"},
      {"measurement": "IC50", "setting": "MCF-7", "result": 43.7, "unit": "nM"},
      {"measurement": "IC50", "setting": "HCC1954", "result": 0.094, "unit": "nM"}
    ]}
  ]
}
